# Experimental data published in PubChem BioAssay AID624263 (National Center for Advancing Translational Sciences (NCATS), 2012).
# The list shows a part of the results, in another mix than the full data. Calls of active or inactive are those of the source. The call rests on the fitted dose curve; in most records, active means well fitted activation curve with a large enough effect; inconclusive means small, poorly fitted or top-dose-only effect; inactive means flat fitted curve, though single readings scatter; cell line not stated here. A call without a number means that no potency is given here.
# Test: A Quantitative High throughput Screen to Identify Chemical Modulators of PINK1 Expression; further: nearly all actives have a fitted effect of over 65% in size
# Conditions: PINK1 immunofluorescence, high-content cytometry, 24 h; series mostly up to 76.6 µM
row,SMILES,Potency
1,O=[N+]([O-])c1ncn(CCn2ncnc2[N+](=O)[O-])n1,inactive
2,CC(C)(C)C(=O)NC(Sc1ccncn1)C(Cl)(Cl)Cl (stereo not given),inactive
3,COc1ccc(NP(C)(=O)Oc2ccccc2OC)cc1 (stereo not given),inactive
4,CN(C)CCOC(=O)C(O)(c1ccccc1)C1CCCCC1 (stereo not given),inactive
5,O=P(Nc1nc2ccccc2s1)(c1ccccc1)c1ccccc1,inactive
6,C[C@H]1OP(=O)(Oc2ccccc2)[C@H](O)[C@H](O)[C@H]1N=[N+]=[N-] (stereo not given in full),inactive
7,O=P(Nc1ccccn1)(c1ccc(Br)cc1)c1ccc(Br)cc1,inactive
8,CN(C)C1(CNC(=O)c2ccc(Cl)c(S(N)(=O)=O)c2)CCCCC1,inactive
9,COc1ccc(OP(C)(=O)Nc2cccc(Br)c2)cc1 (stereo not given),inactive
10,COc1ccc(N)c([N+](=O)[O-])c1[N+](=O)[O-],inactive
11,O=C(OC1CN2CCC1CC2)c1cccc(Cl)c1 (stereo not given),inactive
12,Cc1c(C(c2ccc3c(c2)OCO3)c2c(C)n(C)n(-c3ccccc3)c2=O)c(=O)n(-c2ccccc2)n1C.O=[N+]([O-])c1cc([N+](=O)[O-])c(O)c([N+](=O)[O-])c1,inactive
13,C(Cc1nn[nH]n1)Cc1nn[nH]n1,inactive
14,Nc1ccc([As](=O)(O)c2ccc([N+](=O)[O-])cc2)cc1,inactive
15,O=[As](O)(c1ccccc1)c1ccc(O)cc1,inactive
16,Cc1cc(-c2cccc3ccccc23)c(C)cn1.O=[N+]([O-])c1cc([N+](=O)[O-])c(O)c([N+](=O)[O-])c1,inactive
17,O=[N+]([O-])c1ncn(CCn2cnc([N+](=O)[O-])n2)n1,inactive
18,CC(=O)NC(SC(=S)N(C)C)C(Cl)(Cl)Cl (stereo not given),inactive
19,O=[N+]([O-])c1ccc(OP2(=O)COCCO2)cc1 (stereo not given),inactive
20,c1nnnn1CCn1cnnn1,inactive

row,SMILES,Potency
1,CCOP(C)(=S)SCC(=O)NC(C)(CC)C(=O)O (stereo not given),inactive
2,CC(C)C(=O)NC(Sc1ccccc1)C(Cl)(Cl)Cl (stereo not given),inactive
3,O=P(Nc1nccs1)(c1ccccc1)c1ccccc1,inactive
4,CP(=O)(Nc1ccc(SC(F)(F)F)cc1)Oc1ccc(F)cc1 (stereo not given),inactive
5,O=[N+]([O-])c1cc([N+](=O)[O-])c(C(F)(F)F)c([N+](=O)[O-])c1O,inactive
6,Cc1ccccc1NP(C)(=O)Nc1ccccc1C,inactive
7,CCN(CCCl)Cc1ccccc1C,inactive
8,CP(=O)(Nc1ccc2c(c1)OCCO2)Oc1ccccc1 (stereo not given),inactive
9,CC(C)(C)C(=O)NC(Sc1ccccc1)C(Cl)(Cl)Cl (stereo not given),inactive
10,CC(C)c1ccc(OP(C)(=O)Nc2ccc(SC(F)(F)F)cc2)cc1 (stereo not given),inactive
11,CCc1cc(O)c([N+](=O)[O-])c(C)c1[N+](=O)[O-],inactive
12,O=P1(Nc2nc3ccc(Cl)cc3s2)COc2ccccc2O1 (stereo not given),inactive
13,CCOc1ccc(C2=NCC(CBr)S2)cc1 (stereo not given),inactive
14,CC(=O)Nc1ccc([As](=O)(O)O)c(O)c1,inactive
15,CC(=O)Nc1ccc(Oc2c([N+](=O)[O-])cc([N+](=O)[O-])cc2[N+](=O)[O-])cc1,inactive
16,Cc1ccccc1CN(C)C(=O)COC(=O)C(O)(c1ccccc1)c1ccccc1,inactive
17,O=C(OCCN1CCN(CCOCc2ccccc2)CC1)C(O)(c1ccccc1)c1ccccc1,inactive
18,C[C@H]1OP(=O)(Oc2ccccc2)C[C@@H]2O[C@@H]21 (stereo not given in full),inactive
19,C[C@@H]1C=CCP(=O)(Oc2ccccc2)O1 (stereo not given in full),inactive
20,CC(=O)c1ccc(N2CC2c2ccncc2)cc1 (stereo not given),inactive

row,SMILES,Potency
1,COC(=O)C1(C)COP(=O)(NCc2ccccc2)OC1 (stereo not given),inactive
2,COc1ccc(OP(C)(=O)Nc2ccc(SC(F)(F)F)cc2)cc1 (stereo not given),inactive
3,O=P1(N(CCCl)CCCl)OCCC2CCCCN21 (stereo not given),inactive
4,CCOC(=O)c1ccc(NP(C)(=O)Oc2ccc(F)cc2)cc1 (stereo not given),inactive
5,c1ccc(-c2nn[nH]n2)c(-c2nn[nH]n2)c1,inactive
6,Cc1ccc(NP(=O)(Oc2cccc(C)c2)Oc2cccc(C)c2)nc1,inactive
7,CCNC(=S)/N=C(\N)N[N+](=O)[O-],inactive
8,O=C(NC1CCS(=O)(=O)C1)NP(=S)(Oc1ccccc1)Oc1ccccc1 (stereo not given),inactive
9,CC(NC(=O)COC(=O)C(O)(c1ccccc1)c1ccccc1)c1ccccc1 (stereo not given),inactive
10,Cc1ccccc1OP(=O)(Nc1ccccn1)Oc1ccccc1C,inactive
11,O=c1c2cc([N+](=O)[O-])ccc2[nH]c2c([N+](=O)[O-])cc([N+](=O)[O-])cc12,inactive
12,CCCCCOc1ccc(NP(C)(=O)Oc2ccc(Cl)cc2Cl)cc1 (stereo not given),inactive
13,CN(C)C(=O)Oc1noc2ccccc12,inactive
14,O=C(OC1CN2CCC1CC2)c1ccccc1 (stereo not given),inactive
15,CCN(CC)CCCOC(=O)C(O)(c1ccccc1)C1CCCCC1 (stereo not given),inactive
16,CCC(=O)N1C2C3N(C(=O)CC)C1C1N(C(=O)CC)C(C(N1C(=O)CC)N3C(=O)CC)N2C(=O)CC,inactive
17,Cc1c([N+](=O)[O-])cc([N+](=O)[O-])c(Br)c1[N+](=O)[O-],inactive
18,COC(=O)c1cc2c(s1)N=C(c1ccccc1)N(C)P2(=O)N1CCOCC1 (stereo not given),inactive
19,Cc1ccc(OP(=O)(Nc2ccccn2)Oc2ccc(C)cc2)cc1,inactive
20,CC(=O)NC(SC(=S)N(CC(C)C)CC(C)C)C(Cl)(Cl)Cl (stereo not given),inactive
